Patent US20250388544A1, “HETEROAROMATIC INHIBITORS OF ASTACIN PROTEINASES” (VIVORYON THERAPEUTICS N.V., priority 2019, published 2025)

By UniProt entry, the sequences of proteins in these tests, tags left out. Residues count along the entry.
UniProt Q16820, 62-701 limits assumed: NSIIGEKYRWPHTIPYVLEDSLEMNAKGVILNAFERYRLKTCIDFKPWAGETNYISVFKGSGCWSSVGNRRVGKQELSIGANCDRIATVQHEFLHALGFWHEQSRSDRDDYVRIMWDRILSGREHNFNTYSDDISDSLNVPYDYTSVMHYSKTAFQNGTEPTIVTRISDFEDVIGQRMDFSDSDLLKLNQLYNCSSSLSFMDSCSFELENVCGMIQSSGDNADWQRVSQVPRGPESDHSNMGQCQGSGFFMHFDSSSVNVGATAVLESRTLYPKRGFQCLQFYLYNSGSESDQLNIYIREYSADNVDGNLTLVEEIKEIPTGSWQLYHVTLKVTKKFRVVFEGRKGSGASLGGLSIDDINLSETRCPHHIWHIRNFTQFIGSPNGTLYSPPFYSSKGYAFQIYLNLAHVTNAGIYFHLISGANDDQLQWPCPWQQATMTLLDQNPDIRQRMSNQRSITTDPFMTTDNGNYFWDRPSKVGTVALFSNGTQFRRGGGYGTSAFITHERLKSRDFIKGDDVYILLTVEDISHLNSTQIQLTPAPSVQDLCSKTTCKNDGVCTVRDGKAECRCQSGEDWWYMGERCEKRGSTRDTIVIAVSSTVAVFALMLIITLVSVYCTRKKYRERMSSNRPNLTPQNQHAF
UniProt Q16819, 66-746 limits assumed: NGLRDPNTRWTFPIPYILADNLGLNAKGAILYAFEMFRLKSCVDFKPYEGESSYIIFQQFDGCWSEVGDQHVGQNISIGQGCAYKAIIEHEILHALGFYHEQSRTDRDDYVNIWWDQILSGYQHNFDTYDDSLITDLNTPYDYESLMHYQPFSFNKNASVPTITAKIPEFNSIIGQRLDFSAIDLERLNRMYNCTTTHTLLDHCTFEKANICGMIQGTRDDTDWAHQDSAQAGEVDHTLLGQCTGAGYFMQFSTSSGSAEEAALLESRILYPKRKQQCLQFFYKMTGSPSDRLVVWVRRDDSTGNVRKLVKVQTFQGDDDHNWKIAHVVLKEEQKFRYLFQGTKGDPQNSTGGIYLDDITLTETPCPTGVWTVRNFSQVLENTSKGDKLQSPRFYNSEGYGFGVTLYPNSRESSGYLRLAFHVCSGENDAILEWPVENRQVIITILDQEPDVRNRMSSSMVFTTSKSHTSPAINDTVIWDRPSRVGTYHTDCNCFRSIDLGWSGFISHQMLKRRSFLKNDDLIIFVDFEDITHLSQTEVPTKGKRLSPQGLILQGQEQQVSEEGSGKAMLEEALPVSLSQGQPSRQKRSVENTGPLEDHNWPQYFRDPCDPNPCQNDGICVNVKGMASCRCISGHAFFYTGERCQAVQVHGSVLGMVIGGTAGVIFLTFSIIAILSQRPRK
UniProt O14672, 214-748 limits assumed: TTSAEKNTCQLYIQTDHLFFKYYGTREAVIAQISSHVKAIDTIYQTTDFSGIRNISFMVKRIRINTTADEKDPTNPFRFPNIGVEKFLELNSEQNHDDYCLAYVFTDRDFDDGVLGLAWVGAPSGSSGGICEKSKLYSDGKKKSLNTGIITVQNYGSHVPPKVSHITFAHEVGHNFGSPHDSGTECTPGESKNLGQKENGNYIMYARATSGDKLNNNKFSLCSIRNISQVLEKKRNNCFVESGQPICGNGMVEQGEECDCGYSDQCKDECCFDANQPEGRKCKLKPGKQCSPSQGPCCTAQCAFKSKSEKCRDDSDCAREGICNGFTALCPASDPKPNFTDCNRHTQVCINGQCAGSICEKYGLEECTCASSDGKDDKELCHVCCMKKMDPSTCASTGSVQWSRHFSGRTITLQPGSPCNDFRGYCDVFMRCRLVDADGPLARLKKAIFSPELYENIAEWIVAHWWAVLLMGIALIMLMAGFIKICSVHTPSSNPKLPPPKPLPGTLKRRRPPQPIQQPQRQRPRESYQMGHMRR
UniProt P78536, 215-824 limits assumed: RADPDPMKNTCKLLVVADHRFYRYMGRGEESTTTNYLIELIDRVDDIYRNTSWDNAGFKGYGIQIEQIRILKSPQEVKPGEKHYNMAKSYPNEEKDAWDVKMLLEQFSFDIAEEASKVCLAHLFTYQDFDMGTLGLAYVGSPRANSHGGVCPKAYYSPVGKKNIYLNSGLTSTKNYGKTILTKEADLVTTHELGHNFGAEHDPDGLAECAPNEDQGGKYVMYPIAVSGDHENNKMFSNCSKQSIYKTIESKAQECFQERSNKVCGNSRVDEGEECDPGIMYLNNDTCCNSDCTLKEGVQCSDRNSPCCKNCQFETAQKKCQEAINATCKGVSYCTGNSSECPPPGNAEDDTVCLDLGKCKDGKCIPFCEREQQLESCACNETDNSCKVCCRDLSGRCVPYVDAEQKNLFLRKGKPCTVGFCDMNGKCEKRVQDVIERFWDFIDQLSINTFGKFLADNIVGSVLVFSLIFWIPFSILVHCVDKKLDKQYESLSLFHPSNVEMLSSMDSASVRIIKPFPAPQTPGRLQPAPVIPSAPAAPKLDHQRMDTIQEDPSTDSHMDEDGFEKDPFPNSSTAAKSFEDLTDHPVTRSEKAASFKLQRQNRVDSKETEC
UniProt P14780, 107-707 limits assumed: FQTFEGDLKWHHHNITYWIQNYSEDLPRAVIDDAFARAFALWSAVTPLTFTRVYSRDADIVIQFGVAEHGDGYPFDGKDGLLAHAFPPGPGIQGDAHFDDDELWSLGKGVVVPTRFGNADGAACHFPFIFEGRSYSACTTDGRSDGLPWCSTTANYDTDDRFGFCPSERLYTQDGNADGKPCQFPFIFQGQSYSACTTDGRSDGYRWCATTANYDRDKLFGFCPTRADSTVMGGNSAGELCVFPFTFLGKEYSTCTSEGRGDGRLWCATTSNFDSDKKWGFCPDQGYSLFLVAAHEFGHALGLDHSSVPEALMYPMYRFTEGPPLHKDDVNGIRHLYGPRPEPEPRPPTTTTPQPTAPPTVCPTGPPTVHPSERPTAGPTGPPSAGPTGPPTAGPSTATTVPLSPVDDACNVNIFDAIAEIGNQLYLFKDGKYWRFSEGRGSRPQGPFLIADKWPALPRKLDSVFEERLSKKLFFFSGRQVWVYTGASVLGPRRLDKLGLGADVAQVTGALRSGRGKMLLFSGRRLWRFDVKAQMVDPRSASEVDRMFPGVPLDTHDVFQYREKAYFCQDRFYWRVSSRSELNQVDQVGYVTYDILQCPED
UniProt P08253, 110-660 limits assumed: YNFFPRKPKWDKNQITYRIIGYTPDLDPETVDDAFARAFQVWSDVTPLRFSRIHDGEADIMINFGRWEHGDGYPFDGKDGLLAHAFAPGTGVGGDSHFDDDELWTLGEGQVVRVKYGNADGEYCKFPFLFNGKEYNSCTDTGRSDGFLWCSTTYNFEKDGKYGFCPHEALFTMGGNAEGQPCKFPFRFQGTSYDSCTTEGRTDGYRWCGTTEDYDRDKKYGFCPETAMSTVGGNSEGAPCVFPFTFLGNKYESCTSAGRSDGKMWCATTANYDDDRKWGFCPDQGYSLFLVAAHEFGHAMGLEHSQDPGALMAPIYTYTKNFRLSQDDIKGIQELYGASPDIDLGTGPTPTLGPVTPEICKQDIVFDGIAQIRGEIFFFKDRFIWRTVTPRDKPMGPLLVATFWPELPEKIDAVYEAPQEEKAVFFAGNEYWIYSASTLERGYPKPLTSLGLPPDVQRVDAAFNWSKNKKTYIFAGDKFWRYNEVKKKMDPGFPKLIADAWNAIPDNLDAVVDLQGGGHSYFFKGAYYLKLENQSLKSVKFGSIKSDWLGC

Assays:
hMeprin β [1] = target: T1, hMeprin β (Homo sapiens, UniProt Q16820); assay: Enzymatic assay, quenched peptide substrate cleavage, method B
hMeprin α [2] = target: T2, hMeprin α (Homo sapiens, UniProt Q16819); assay: as above
hADAM 10 = hADAM 10 (Homo sapiens, UniProt O14672); assay: Residual enzyme activity of other metalloproteases
hADAM 17 = hADAM 17 (Homo sapiens, UniProt P78536); assay: Residual enzyme activity of other metalloproteases
hMMP 9 = hMMP 9 (Homo sapiens, UniProt P14780); assay: Residual enzyme activity of other metalloproteases
hMeprin β [3] = target: T1, hMeprin β; assay: Enzymatic assay, quenched peptide substrate cleavage, method A; settings: read-out: Meprin beta IC50, geometric mean (geometric SD factor in parentheses)
hMeprin α [4] = target: T2, hMeprin α; assay: as above; settings: read-out: Meprin alpha IC50, geometric mean (geometric SD factor in parentheses)
hMMP 13 = hMMP 13 (Homo sapiens, UniProt P45452); assay: Residual enzyme activity of other metalloproteases; assay type: biochemical
hMMP 2 = hMMP 2 (Homo sapiens, UniProt P08253); assay: Residual enzyme activity of other metalloproteases; assay type: biochemical

## O=C(Cn1c(-c2ccc(Cl)c(O)c2F)nc2ccccc21)NO
hMeprin β [1]; read-out: Meprin beta IC50, geometric mean (geometric SD factor in parentheses)
  IC50: 0.258 µM
hMeprin β [1]; read-out: Meprin beta Ki(app), Morrison's equation, geometric mean (geometric SD factor in parentheses)
  Ki: 0.254 µM
hMeprin α [2]; read-out: Meprin alpha IC50, geometric mean (geometric SD factor in parentheses)
  IC50: 0.258 µM
hMeprin α [2]; read-out: Meprin alpha Ki(app), Morrison's equation, geometric mean (geometric SD factor in parentheses)
  Ki: 0.263 µM
hADAM 10; 10 μM inhibitor
  Residual enzyme activity ADAM10: 86%
hADAM 10; 200 μM inhibitor
  Residual enzyme activity ADAM10: 78%
hADAM 17; 10 μM inhibitor
  Residual enzyme activity ADAM17: 92%
hADAM 17; 200 μM inhibitor
  Residual enzyme activity ADAM17: 82%
hMMP 9; 10 μM inhibitor
  Residual enzyme activity MMP9: 94%
hMMP 9; 200 μM inhibitor
  Residual enzyme activity MMP9: 50%
hMeprin β [3]
  IC50: 0.046 µM
hMeprin α [4]
  IC50: 0.199 µM
hMMP 13; 10 μM inhibitor
  Residual enzyme activity MMP13: 105%
hMMP 13; 200 μM inhibitor
  Residual enzyme activity MMP13: 84%
hMMP 2; 10 μM inhibitor
  Residual enzyme activity MMP2: 93%
hMMP 2; 200 μM inhibitor
  Residual enzyme activity MMP2: 83%
